Assay results published in patent US6953855B2 (priority 1998, dated 2005).

Chains of the proteins cited; added tags and fusions are not shown. Residues count along the entry.
UniProt P30926, 22-498: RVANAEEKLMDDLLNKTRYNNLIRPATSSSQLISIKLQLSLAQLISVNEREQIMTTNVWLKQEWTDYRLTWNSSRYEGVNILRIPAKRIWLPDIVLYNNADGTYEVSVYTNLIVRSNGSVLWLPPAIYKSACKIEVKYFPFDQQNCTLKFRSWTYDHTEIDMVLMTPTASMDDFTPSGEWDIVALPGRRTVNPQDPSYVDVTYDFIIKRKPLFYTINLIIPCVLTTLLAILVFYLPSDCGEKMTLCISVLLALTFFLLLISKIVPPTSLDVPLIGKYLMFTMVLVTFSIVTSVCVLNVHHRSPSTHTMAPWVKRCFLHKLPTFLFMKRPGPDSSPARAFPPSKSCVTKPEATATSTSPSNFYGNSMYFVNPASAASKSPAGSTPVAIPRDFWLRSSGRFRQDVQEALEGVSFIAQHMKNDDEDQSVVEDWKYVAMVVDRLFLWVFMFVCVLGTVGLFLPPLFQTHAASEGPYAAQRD
UniProt P32297, 32-505: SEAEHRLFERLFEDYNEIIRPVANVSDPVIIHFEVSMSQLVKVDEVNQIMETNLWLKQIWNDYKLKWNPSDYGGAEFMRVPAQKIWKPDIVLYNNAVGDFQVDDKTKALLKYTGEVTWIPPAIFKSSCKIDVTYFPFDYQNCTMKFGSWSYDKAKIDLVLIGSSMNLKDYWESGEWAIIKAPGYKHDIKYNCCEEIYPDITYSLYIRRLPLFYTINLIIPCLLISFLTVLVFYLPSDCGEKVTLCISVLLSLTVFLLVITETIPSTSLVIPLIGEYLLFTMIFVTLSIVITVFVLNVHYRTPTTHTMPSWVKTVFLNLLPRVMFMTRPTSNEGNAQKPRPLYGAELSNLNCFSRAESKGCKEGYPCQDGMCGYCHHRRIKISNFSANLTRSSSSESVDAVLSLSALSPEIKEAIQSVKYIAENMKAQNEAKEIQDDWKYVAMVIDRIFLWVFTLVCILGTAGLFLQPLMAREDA

target: ganglion-type receptors (α3β4 subtype in human SHSY-5Y clonal cells) (Homo sapiens, UniProt P30926+P32297); test: cell-based; settings: SH-SY5Y, read-out: agonist activity, % of nicotine's response (human ganglion)

Question: With `O=C(Nc1ccc(Br)cc1)OC1C2CCN(CC2)C1Cc1cccnc1` (centres unmarked) [Compound 1, 2-((3-pyridinyl)methyl)-1-azabicyclo[2.2.2]oct-3-yl N-(4-bromophenyl)carbamate] as the compound, how does the activation at 100 µM read?
Answer: 1 to 15%

Question: Which activation at 100 µM does the source give for `O=C(Nc1ccc(F)cc1)OC1C2CCN(CC2)C1Cc1cccnc1` (centres unmarked) [Compound 3, 2-((3-pyridinyl)methyl)-1-azabicyclo[2.2.2]oct-3-yl N-(4-fluorophenyl)carbamate] here?
Answer: 1 to 15%

Question: With `COc1ccc(NC(=O)OC2C3CCN(CC3)C2Cc2cccnc2)cc1` (centres unmarked) [Compound 4, 2-((3-pyridinyl)methyl)-1-azabicyclo[2.2.2]oct-3-yl N-(4-methoxyphenyl)carbamate] as the compound, how does the activation at 100 µM read?
Answer: 1 to 15%

Question: `CSc1ccc(NC(=O)OC2C3CCN(CC3)C2Cc2cccnc2)cc1` (centres unmarked) [Compound 5, 2-((3-pyridinyl)methyl)-1-azabicyclo[2.2.2]oct-3-yl N-(4-methylthiophenyl)carbamate] was tested. Which activation at 100 µM did it give?
Answer: 1 to 15%

Question: `O=C(NC1C2CCN(CC2)C1Cc1cccnc1)c1ccc(F)cc1` (centres unmarked) [Compound 8, N-(2-((3-pyridinyl)methyl)-1-azabicyclo[2.2.2]oct-3-yl)-4-fluorobenzamide] was tested. Which activation at 100 µM did it give?
Answer: 1 to 15%

Question: For `O=C(NC1C2CCN(CC2)C1Cc1cccnc1)c1cc2ccccc2o1` (centres unmarked) [Compound 9, N-(2-((3-pyridinyl)methyl)-1-azabicyclo[2.2.2]oct-3-yl)benzofuran-2-carboxamide], which activation at 100 µM is on record?
Answer: 1 to 15%

Question: For `O=C(NC1C2CCN(CC2)C1Cc1cccnc1)c1ccc(Br)cc1` (centres unmarked) [Compound 10, N-(2-((3-pyridinyl)methyl)-1-azabicyclo[2.2.2]oct-3-yl)-4-bromobenzamide], which activation at 100 µM is on record?
Answer: 1 to 15%

Question: With `O=C(NC1C2CCN(CC2)C1Cc1cccnc1)c1ccccc1` (centres unmarked) [Compound 13, N-(2-((3-pyridinyl)methyl)-1-azabicyclo[2.2.2]oct-3-yl)benzamide] as the compound, how does the activation at 100 µM read?
Answer: 1 to 15%

Question: How did the activation at 100 µM turn out when `COc1cccc(C(=O)NC2C3CCN(CC3)C2Cc2cccnc2)c1` (centres unmarked) [Compound 14, N-(2-((3-pyridinyl)methyl)-1-azabicyclo[2.2.2]oct-3-yl)-3-methoxybenzamide] was run?
Answer: 1 to 15%

Question: Which activation at 100 µM does the source give for `O=C(NC1C2CCN(CC2)C1Cc1cccnc1)c1cccc(Br)c1` (centres unmarked) [Compound 15, N-(2-((3-pyridinyl)methyl)-1-azabicyclo[2.2.2]oct-3-yl)-3-bromobenzamide] here?
Answer: 1 to 15%

Question: Which activation at 100 µM does the source give for `O=C(Nc1ccccc1)NC1C2CCN(CC2)C1Cc1cccnc1` (centres unmarked) [Compound 16, N-phenyl-N′-(2-((3-pyridinyl)methyl)-1-azabicyclo[2.2.2]oct-3-yl)urea] here?
Answer: 1 to 15%

Question: For `O=C(Nc1ccc(Oc2ccccc2)cc1)NC1C2CCN(CC2)C1Cc1cccnc1` (centres unmarked) [Compound 17, N-(4-phenoxyphenyl)-N′-(2-((3-pyridinyl)methyl)-1-azabicyclo[2.2.2]oct-3-yl)urea], which activation at 100 µM is on record?
Answer: 1 to 15%

Question: How did the activation at 100 µM turn out when `CSc1ccc(NC(=O)NC2C3CCN(CC3)C2Cc2cccnc2)cc1` (centres unmarked) [Compound 18, N-(4-methylthiophenyl)-N′-(2-((3-pyridinyl)methyl)-1-azabicyclo[2.2.2]oct-3-yl)urea] was run?
Answer: 1 to 15%

Question: For `O=C(Nc1cccc(F)c1)NC1C2CCN(CC2)C1Cc1cccnc1` (centres unmarked) [Compound 19, N-(3-fluorophenyl)-N′-(2-((3-pyridinyl)methyl)-1-azabicyclo[2.2.2]oct-3-yl)urea], which activation at 100 µM is on record?
Answer: 1 to 15%

Question: With `O=C(Nc1ccc(Br)cc1)NC1C2CCN(CC2)C1Cc1cccnc1` (centres unmarked) [Compound 20, N-(4-bromophenyl)-N′-(2-((3-pyridinyl)methyl)-1-azabicyclo[2.2.2]oct-3-yl)urea] as the compound, how does the activation at 100 µM read?
Answer: 1 to 15%

Question: With `COc1ccccc1NC(=O)NC1C2CCN(CC2)C1Cc1cccnc1` (centres unmarked) [Compound 21, N-(2-methoxyphenyl)-N′-(2-((3-pyridinyl)methyl)-1-azabicyclo[2.2.2]oct-3-yl)urea] as the compound, how does the activation at 100 µM read?
Answer: 1 to 15%

Question: Which activation at 100 µM does the source give for `COc1ccc(NC(=O)NC2C3CCN(CC3)C2Cc2cccnc2)c(OC)c1` (centres unmarked) [Compound 22, N-(2,4-dimethoxyphenyl)-N′-(2-((3-pyridinyl)methyl)-1-azabicyclo[2.2.2]oct-3-yl)urea] here?
Answer: 1 to 15%

Question: `O=C(Nc1ccc(Cl)c(Cl)c1)NC1C2CCN(CC2)C1Cc1cccnc1` (centres unmarked) [Compound 23, N-(3,4-dichlorophenyl)-N′-(2-((3-pyridinyl)methyl)-1-azabicyclo[2.2.2]oct-3-yl)urea] was tested. Which activation at 100 µM did it give?
Answer: 1 to 15%

Question: For `COc1ccc(NC(=O)NC2C3CCN(CC3)C2Cc2cccnc2)cc1` (centres unmarked) [Compound 24, N-(4-methoxyphenyl)-N′-(2-((3-pyridinyl)methyl)-1-azabicyclo[2.2.2]oct-3-yl)urea], which activation at 100 µM is on record?
Answer: 1 to 15%

Question: Which activation at 100 µM does the source give for `CN(C)c1ccc(NC(=O)NC2C3CCN(CC3)C2Cc2cccnc2)cc1` (centres unmarked) [Compound 25, N-(4-dimethylaminophenyl)-N′-(2-((3-pyridinyl)methyl)-1-azabicyclo[2.2.2]oct-3-yl)urea] here?
Answer: 1 to 15%

Question: Which activation at 100 µM does the source give for `CN(C(=O)Nc1ccccc1)C1C2CCN(CC2)C1Cc1cccnc1` (centres unmarked) [Compound 26, N-phenyl-N′-methyl-N′-(2-((3-pyridinyl)methyl)-1-azabicyclo[2.2.2]oct-3-yl)urea] here?
Answer: 1 to 15%

Question: How did the activation at 100 µM turn out when `CN(C(=O)Nc1ccc(Br)cc1)C1C2CCN(CC2)C1Cc1cccnc1` (centres unmarked) [Compound 27, N-(4-bromophenyl)-N′-methyl-N′-(2-((3-pyridinyl)methyl)-1-azabicyclo [2.2.2]oct-3-yl)urea] was run?
Answer: 1 to 15%

Question: How did the activation at 100 µM turn out when `O=C(C=Cc1ccccc1)NC1C2CCN(CC2)C1Cc1cccnc1` (centres unmarked) [Compound 28, N-(2-((3-pyridinyl)methyl)-1-azabicyclo[2.2.2]oct-3-yl)3-phenylprop-2-enamide] was run?
Answer: 1 to 15%

Question: `O=C(C=Cc1ccc(Cl)cc1)NC1C2CCN(CC2)C1Cc1cccnc1` (centres unmarked) [Compound 29, N-(2-((3-pyridinyl)methyl)-1-azabicyclo[2.2.2]oct-3-yl)-3-(4-chlorophenyl)prop-2-enamide] was tested. Which activation at 100 µM did it give?
Answer: 1 to 15%

Question: Which activation at 100 µM does the source give for `O=C(C=Cc1ccc(Br)cc1)NC1C2CCN(CC2)C1Cc1cccnc1` (centres unmarked) [Compound 30, N-(2-((3-pyridinyl)methyl)-1-azabicyclo[2.2.2]oct-3-yl)-3-(4-bromophenyl)prop-2-enamide] here?
Answer: 1 to 15%

Question: With `O=C(C=Cc1cccc(O)c1)NC1C2CCN(CC2)C1Cc1cccnc1` (centres unmarked) [Compound 31, N-(2-((3-pyridinyl)methyl)-1-azabicyclo[2.2.2]oct-3-yl)-3-(3-hydroxyphenyl)prop-2-enamide] as the compound, how does the activation at 100 µM read?
Answer: 1 to 15%

Question: How did the activation at 100 µM turn out when `COc1cccc(C=CC(=O)NC2C3CCN(CC3)C2Cc2cccnc2)c1` (centres unmarked) [Compound 32, N-(2-((3-pyridinyl)methyl)-1-azabicyclo[2.2.2]oct-3-yl)-3-(3-methoxyphenyl)prop-2-enamide] was run?
Answer: 1 to 15%

Question: With `O=C(C=Cc1ccccc1F)NC1C2CCN(CC2)C1Cc1cccnc1` (centres unmarked) [Compound 33, N-(2-((3-pyridinyl)methyl)-1-azabicyclo[2.2.2]oct-3-yl)-3-(2-fluorophenyl)prop-2-enamide] as the compound, how does the activation at 100 µM read?
Answer: 1 to 15%

Question: With `O=C(C=Cc1ccccc1O)NC1C2CCN(CC2)C1Cc1cccnc1` (centres unmarked) [Compound 34, N-(2-((3-pyridinyl)methyl)-1-azabicyclo[2.2.2]oct-3-yl)-3-(2-hydroxyphenyl)prop-2-enamide] as the compound, how does the activation at 100 µM read?
Answer: 1 to 15%
